Assays:
Cytochrome P450 3A4 [1] = biological target: T1, Cytochrome P450 3A4 (Homo sapiens, UniProt P08684); assay: Inhibition of CYP3A4 (unknown origin) co-incubated with substrate and protein; assay type: ADME
Cytochrome P450 3A4 [2] = biological target: T1, Cytochrome P450 3A4
Cytochrome P450 2D6 [3] = biological target: T2, Cytochrome P450 2D6 (Homo sapiens, UniProt P10635); assay: Inhibition of CYP2D6 (unknown origin) co-incubated with substrate and protein; assay type: ADME
Cytochrome P450 2D6 [4] = biological target: T2, Cytochrome P450 2D6
Cytochrome P450 2C9 [5] = biological target: T3, Cytochrome P450 2C9 (Homo sapiens, UniProt P11712); assay: Inhibition of CYP2C9 (unknown origin) co-incubated with substrate and protein; assay type: ADME
Cytochrome P450 2C9 [6] = biological target: T3, Cytochrome P450 2C9

Chains of the proteins cited; added tags and fusions are not shown.
UniProt P08684, whole entry, looked up: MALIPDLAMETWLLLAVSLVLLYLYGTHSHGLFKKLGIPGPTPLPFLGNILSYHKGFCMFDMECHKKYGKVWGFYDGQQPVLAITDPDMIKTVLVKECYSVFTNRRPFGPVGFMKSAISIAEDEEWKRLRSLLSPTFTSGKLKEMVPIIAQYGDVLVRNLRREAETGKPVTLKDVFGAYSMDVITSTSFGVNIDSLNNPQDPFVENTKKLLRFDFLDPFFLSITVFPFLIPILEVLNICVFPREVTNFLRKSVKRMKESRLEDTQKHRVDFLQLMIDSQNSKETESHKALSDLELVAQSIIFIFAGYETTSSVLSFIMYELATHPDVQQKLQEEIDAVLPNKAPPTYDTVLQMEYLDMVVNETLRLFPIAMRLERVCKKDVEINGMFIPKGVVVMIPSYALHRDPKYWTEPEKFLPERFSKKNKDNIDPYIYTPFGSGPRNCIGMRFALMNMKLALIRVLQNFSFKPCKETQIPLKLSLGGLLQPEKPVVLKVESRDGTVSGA
UniProt P10635, whole entry, looked up: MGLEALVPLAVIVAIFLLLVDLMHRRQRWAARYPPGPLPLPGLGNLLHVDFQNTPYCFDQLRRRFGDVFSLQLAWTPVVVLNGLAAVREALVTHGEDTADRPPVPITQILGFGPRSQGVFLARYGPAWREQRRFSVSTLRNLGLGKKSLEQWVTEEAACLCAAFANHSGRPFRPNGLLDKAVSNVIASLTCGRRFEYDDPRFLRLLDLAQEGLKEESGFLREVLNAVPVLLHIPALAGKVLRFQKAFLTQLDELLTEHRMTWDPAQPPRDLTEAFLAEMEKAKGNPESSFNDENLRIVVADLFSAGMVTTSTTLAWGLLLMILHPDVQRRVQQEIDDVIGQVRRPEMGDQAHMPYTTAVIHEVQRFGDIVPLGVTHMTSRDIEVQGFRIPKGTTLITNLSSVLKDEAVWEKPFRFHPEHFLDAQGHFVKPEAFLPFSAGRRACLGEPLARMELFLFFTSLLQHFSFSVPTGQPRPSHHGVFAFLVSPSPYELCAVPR
UniProt P11712, whole entry, looked up: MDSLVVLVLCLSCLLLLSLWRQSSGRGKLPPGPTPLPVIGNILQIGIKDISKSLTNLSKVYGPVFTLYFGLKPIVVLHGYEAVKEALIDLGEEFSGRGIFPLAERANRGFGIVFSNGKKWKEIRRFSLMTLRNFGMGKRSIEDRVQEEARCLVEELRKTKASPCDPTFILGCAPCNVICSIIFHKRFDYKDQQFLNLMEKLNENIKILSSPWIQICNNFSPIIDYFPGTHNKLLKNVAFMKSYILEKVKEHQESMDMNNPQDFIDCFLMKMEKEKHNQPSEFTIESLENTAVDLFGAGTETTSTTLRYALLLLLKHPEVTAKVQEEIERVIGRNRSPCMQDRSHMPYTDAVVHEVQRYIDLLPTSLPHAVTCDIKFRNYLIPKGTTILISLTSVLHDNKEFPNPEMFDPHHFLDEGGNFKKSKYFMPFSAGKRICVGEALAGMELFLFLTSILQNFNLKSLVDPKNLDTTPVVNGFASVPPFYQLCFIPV

Measured: IC50

CP1(=O)OCC2(CCC[C@@]3(S(=O)(=O)c4ccc(Cl)cc4)c4c(F)ccc(F)c4OC[C@@H]23)CO1 (some centres not stated)
> 20 µM: all assays above

CP1(=O)OCC[C@]2(CCC[C@@]3(S(=O)(=O)c4ccc(Cl)cc4)c4c(F)ccc(F)c4OC[C@@H]23)CO1 (some centres not stated)
> 20 µM: all assays above

From ChEMBL document CHEMBL3627709, “Discovery of a Novel, Potent Spirocyclic Series of γ-Secretase Inhibitors” (J Med Chem, 2015)
